# Yeast mating assay B: variants of the scFv Ab-14

From the AlphaSeq antibody data of Li et al. 2023 (doi:10.1038/s41467-023-39022-2), copy in the FLAb collection.

Target: peptide PDVDLGDISGINAS, taken from heptad repeat 2 (HR2) of SARS-CoV-2 spike.

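The starting antibody came from a phage panning campaign against this peptide. Designed CDR sequences, proposed from the first random library and measured here. Their group label is 14L_Ctrl (Ctrl: baseline library sampled from a position-specific scoring matrix, with some repeated check sequences). AlphaSeq pools MATa yeast showing the antibodies with MATalpha yeast showing the peptide. Pairs that bind mate more often; barcode pairs of the diploids are counted by sequencing. A regression on co-assayed BCL2-family reference pairs converts the normalised counts of each replicate to an apparent Kd. There are six technical replicates.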

Parent scFv Ab-14: VH joined to VL by the linker GGGGSGGGGSGGGGS. Changes lie in the light chain CDRs alone.
VH: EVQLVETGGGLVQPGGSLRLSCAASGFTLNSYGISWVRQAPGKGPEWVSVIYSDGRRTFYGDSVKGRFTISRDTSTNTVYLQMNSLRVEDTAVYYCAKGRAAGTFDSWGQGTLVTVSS
VL: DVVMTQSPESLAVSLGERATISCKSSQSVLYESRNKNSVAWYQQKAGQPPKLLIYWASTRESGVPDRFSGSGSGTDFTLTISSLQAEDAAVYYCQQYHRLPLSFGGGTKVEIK

The parent's light chain CDRs are KSSQSVLYESRNKNSVA, WASTRES, QQYHRLPLS; each variant's own CDRs replace them letter for letter.
Affinities are written as log10 Kd with Kd in nM; a lower number is a better binder.
Averages over replicates are reported, and they cover detected replicates only.
An entry "nd" has no value in the source: the pair was not observed among the diploids in that replicate. This suggests poor binding but is not conclusive.

Variant KSSASVLYESANKNSVA, WASTRES, QQYHRLPLS gave 2.41, 2.32, 1.44, 2.88, 1.99, 2.08 (mean 2.19; controls 1 of 18).
Variant KYSQSVMYESGNKNSVA, WASTRES, QQCHRLPLW gave nd, nd, 1.74, 1.30, nd, nd (mean 1.52; controls 0 of 18).
Variant KSKQSVLYESRNKNSVA, WASTRES, GQYHRGPLS gave nd, nd, nd, nd, nd, nd (controls 1 of 18).
Variant KSSQDVLYESRNKNSVA, WAKTRES, QQYHILILD gave nd, nd, nd, nd, nd, nd (controls 0 of 18).
Variant KISQSVLYDSRFKNSVA, WASTRES, QQYHRLPLS gave 1.57, 2.23, 1.42, 1.93, 1.19, 1.43 (mean 1.63; controls 1 of 18).
Variant KSSQSVLYESRNANSVA, EASTRES, QQYHRLPLS gave 0.53, 0.60, 0.38, 0.39, 0.43, 0.88 (mean 0.53; controls 0 of 18).
Variant GQSISVLYESTNKNSVA, WADTRES, QQYHRLPLS gave nd, nd, nd, nd, nd, nd (controls 0 of 18).
Variant KMSQSVLYESRNKNSVA, WASTRES, QQYFRLPLN gave 1.57, 1.40, 0.80, 0.91, 0.89, 2.15 (mean 1.29; controls 0 of 18).
Variant KSSQAVLYESRNKNSVA, NASTRNS, QQYCRLPLT gave 0.24, 0.27, -0.03, -0.29, -0.13, 0.14 (mean 0.03; controls 5 of 18).
Variant KSSQSVTYESRNKNSVA, WAETREN, QQGARLPGS gave nd, nd, nd, nd, nd, nd (controls 0 of 18).
Variant KMSQSTLYESRNKNSVA, AASTRES, QQYHRLPLS gave -0.13, -0.16, -0.25, -0.22, -0.40, -0.09 (mean -0.21; controls 1 of 18).
Variant KSSQSVLYESKVKNSVA, WASTRES, QQYHRLSLS gave nd, nd, nd, nd, nd, nd (controls 0 of 18).
Variant KSSQSNLDGSRNKNSVA, KASTRES, QQYIRLPLS gave 0.94, 1.06, 1.29, 0.61, 0.98, 1.42 (mean 1.05; controls 0 of 18).
Variant KSSQSVLYEDRNKNSVA, HASTRES, QQYHRLPLS gave 0.59, -0.28, -0.27, -0.44, -0.27, 0.57 (mean -0.02; controls 0 of 18).
Variant KKQQSVLYESRNKNSVA, GASTRES, QQYHRLPLY gave 2.00, 2.19, 3.30, 2.44, 2.43, 2.44 (mean 2.47; controls 0 of 18).
Variant KLSQSVLYEEMNKNNVA, WASTRES, QQYHRLPLS gave 0.24, 0.21, 0.27, 0.19, 0.22, 0.24 (mean 0.23; controls 0 of 18).
Variant KSSQSLLYESRNKNSVA, WARTRES, QQYHRLPLQ gave 3.38, 1.85, nd, 3.16, nd, nd (mean 2.80; controls 0 of 18).
Variant MSSQSVLYEHRNKNSVA, WASTREA, QQYHRLPLL gave nd, 2.42, 1.73, 1.57, 2.53, 2.26 (mean 2.10; controls 0 of 18).
Variant KIRQSVLYESANANSVA, WASTRES, QQYHDLPLS gave nd, nd, nd, nd, nd, nd (controls 0 of 18).
Variant KSSQSVLYESRNKNSVA, WASTRES, NQYHRLMLS gave nd, nd, nd, nd, nd, nd (controls 0 of 18).
Variant KSSQSVLYESMNKNSVA, WASTRES, QQYHRLLLC gave nd, nd, 1.56, nd, nd, nd (controls 0 of 18).
Variant KISKSVLYESRNANSVA, WADTRES, QQYHRLPLS gave 1.45, 2.02, 2.18, 1.47, 0.80, 1.88 (mean 1.63; controls 1 of 18).
Variant KFSQSVLYESRGKNSVA, WASTRES, QQYHRLPLS gave 1.44, 1.96, 1.44, 1.16, 1.87, 1.10 (mean 1.50; controls 0 of 18).
Variant KSSQSVLYEDRNSNSVA, QASTRES, QQYHRLPLS gave 0.73, 0.79, 0.64, 0.70, 0.73, 0.60 (mean 0.70; controls 1 of 18).
Variant KISQSVLYESRNKNSVA, NASTRES, QQYWRLLLS gave 0.27, 1.04, 1.09, 0.08, 1.12, 0.73 (mean 0.72; controls 0 of 18).
Variant KSSQSVLYESENKNSVA, RASTRES, QQYHRLPLS gave 0.50, 0.81, 0.57, 0.51, 0.34, 0.68 (mean 0.57; controls 3 of 18).
Variant KSSQSVLYESRNANSVA, WASTRES, QQHHRLPLS gave nd, nd, nd, nd, nd, nd (controls 0 of 18).
Variant KSSQSHLYESRNKNSVA, WASFRLS, QQYHRLPLS gave nd, nd, nd, nd, nd, nd (controls 0 of 18).
Variant ESSQSVLYFSRNKNSVA, GASTRES, YQYHRLPLS gave 1.27, nd, -0.15, 0.11, -0.17, nd (mean 0.27; controls 0 of 18).
Variant KSQQYVAYEDRNKNSVA, WASTRES, QQYARLLLS gave nd, nd, nd, nd, nd, nd (controls 0 of 18).
Variant KFSQSVLYESRNKNSVA, GASTRMA, QQYHELPLS gave 0.66, 0.35, 0.12, 0.59, 0.56, 0.78 (mean 0.51; controls 0 of 18).
Variant KSSQSVLYESRNKNSIA, WASTCES, QQYRRLPLS gave nd, nd, nd, nd, nd, nd (controls 0 of 18).
Variant KFSQSVLYESRNKKSVA, WGSTRES, QQYHRLPLS gave 1.40, 0.91, 1.02, 0.60, 0.65, 1.10 (mean 0.95; controls 0 of 18).
Variant KSSQSVLYESRNKNSVA, GASIRES, QQYHRLPLS gave 0.46, 0.57, 0.22, 0.30, 0.25, 0.40 (mean 0.37; controls 0 of 18).
Variant KSSQFVLYESRNKNSVA, WASTRES, QQYHRLPLS gave 1.47, nd, 3.53, 2.29, nd, nd (mean 2.43; controls 0 of 18).
Variant KSYQAVLEESRNKNSVA, MASTRES, QAYHRLPSS gave nd, nd, nd, nd, nd, nd (controls 1 of 18).

The opening 5 entries, copied out:

CDR-L1,CDR-L2,CDR-L3,"log10 Kd, replicates","log10 Kd (nM), mean",empty controls
KSSASVLYESANKNSVA,WASTRES,QQYHRLPLS,"2.41, 2.32, 1.44, 2.88, 1.99, 2.08",2.19,1 of 18
KYSQSVMYESGNKNSVA,WASTRES,QQCHRLPLW,"nd, nd, 1.74, 1.30, nd, nd",1.52,0 of 18
KSKQSVLYESRNKNSVA,WASTRES,GQYHRGPLS,"nd, nd, nd, nd, nd, nd",nd,1 of 18
KSSQDVLYESRNKNSVA,WAKTRES,QQYHILILD,"nd, nd, nd, nd, nd, nd",nd,0 of 18
KISQSVLYDSRFKNSVA,WASTRES,QQYHRLPLS,"1.57, 2.23, 1.42, 1.93, 1.19, 1.43",1.63,1 of 18

The range of this assay differs from that of the first round, and the authors advise against merging the two.
In the paper, a design with two or fewer of six values counts as a poor binder.
The parent sequence was in this pool as ten entries: three were never detected, three once, and four in most replicates, with averages from 0.34 to 2.37.
As a blank, each scFv also met three strains without target: over all light chain designs, 4% of these pairings were detected, typically at 2.64 and seldom below 1.59. The control count says in how many pairings with the empty strains this scFv gave a signal.